{"sequences": {"note": "Chains of the proteins cited; added tags and fusions are not shown.", "UniProt Q8NCG7, whole entry": "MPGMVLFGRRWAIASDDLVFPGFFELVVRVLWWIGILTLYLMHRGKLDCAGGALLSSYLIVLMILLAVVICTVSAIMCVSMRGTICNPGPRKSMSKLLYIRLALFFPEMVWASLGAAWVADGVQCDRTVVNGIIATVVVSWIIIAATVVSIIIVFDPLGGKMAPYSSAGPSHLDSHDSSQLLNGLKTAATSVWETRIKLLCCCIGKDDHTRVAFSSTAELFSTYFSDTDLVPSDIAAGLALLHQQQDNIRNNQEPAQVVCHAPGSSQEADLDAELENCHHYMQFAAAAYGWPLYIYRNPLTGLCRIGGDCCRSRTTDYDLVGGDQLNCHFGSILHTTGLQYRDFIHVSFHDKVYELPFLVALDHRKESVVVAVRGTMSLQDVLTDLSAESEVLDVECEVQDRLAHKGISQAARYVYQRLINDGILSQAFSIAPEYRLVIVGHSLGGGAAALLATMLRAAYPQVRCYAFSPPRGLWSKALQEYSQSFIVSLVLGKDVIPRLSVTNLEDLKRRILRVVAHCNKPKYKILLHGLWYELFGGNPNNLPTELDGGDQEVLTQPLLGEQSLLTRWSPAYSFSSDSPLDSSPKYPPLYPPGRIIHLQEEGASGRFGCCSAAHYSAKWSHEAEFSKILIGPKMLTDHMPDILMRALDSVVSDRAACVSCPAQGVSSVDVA"}, "source": "PubChem BioAssay AID504411", "about": "(The Scripps Research Institute Molecular Screening Center, 2011)", "note": "This is a selection; strong and weak results do not stand in their true shares. Calls of active or inactive are those of the source. Rule as the data show it: active = inhibition above about 34%; inactive = the rest."}
{"target": "Diacylglycerol lipase-beta (Homo sapiens) (UniProt Q8NCG7)", "experiment": "inhibition of human DAGLB hydrolase activity – biochemical, fluorescence, HTS, primary screen (AID 504411);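 also: 0% = enzyme with vehicle and 100% = wells lacking enzyme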", "conditions": "HEK293T DAGLB membrane lysate, EnzChek fluorogenic substrate; at 5.17 µM; hits give high values"}
{"smiles": "CCC(=O)N(c1ccccc1)C1(COC)CCN(CCc2cccs2)CC1", "inhibition": "inactive: -2.02%"}
{"smiles": "CCC(=O)N(c1ccccc1)C1(COC)CCN(CCn2nnn(CC)c2=O)CC1", "inhibition": "inactive: 1.31%"}
